pIC50: −log10 of the molar value.
Tested on: H630 cells
Test: Colony formation assay

inhibition of colony formation from combining IC50 amounts of 3-oxo-C12-HSL and FU (H630 cells, FIG. 10 conditions): more than 90%
enhancement in the apparent IC50 in the presence of 23 μM 3-oxo-C12-HSL (H630 cells, colony formation): ~12 fold
pIC50 (Homo sapiens, NCI-H630, 336 h, read-out: apparent IC50 of FU in the presence of 23 μM 3-oxo-C12-HSL): 7.10
Structure (SMILES): O=c1[nH]cc(F)c(=O)[nH]1 [FU, 5-fluorouracil]

Source: patent publication US20070010477A1, “Acyl homoserine lactones for inhibition of cell growth” (priority 2005, published 2007)
